Measurements taken from article PMC6345973, “IRE1α-XBP1s pathway promotes prostate cancer by activating c-MYC signaling” (Nature Communications, 2019).

The chains behind the UniProt entries cited, without tags or fusion partners. Residues count along the entry.
UniProt O75460, 19-977: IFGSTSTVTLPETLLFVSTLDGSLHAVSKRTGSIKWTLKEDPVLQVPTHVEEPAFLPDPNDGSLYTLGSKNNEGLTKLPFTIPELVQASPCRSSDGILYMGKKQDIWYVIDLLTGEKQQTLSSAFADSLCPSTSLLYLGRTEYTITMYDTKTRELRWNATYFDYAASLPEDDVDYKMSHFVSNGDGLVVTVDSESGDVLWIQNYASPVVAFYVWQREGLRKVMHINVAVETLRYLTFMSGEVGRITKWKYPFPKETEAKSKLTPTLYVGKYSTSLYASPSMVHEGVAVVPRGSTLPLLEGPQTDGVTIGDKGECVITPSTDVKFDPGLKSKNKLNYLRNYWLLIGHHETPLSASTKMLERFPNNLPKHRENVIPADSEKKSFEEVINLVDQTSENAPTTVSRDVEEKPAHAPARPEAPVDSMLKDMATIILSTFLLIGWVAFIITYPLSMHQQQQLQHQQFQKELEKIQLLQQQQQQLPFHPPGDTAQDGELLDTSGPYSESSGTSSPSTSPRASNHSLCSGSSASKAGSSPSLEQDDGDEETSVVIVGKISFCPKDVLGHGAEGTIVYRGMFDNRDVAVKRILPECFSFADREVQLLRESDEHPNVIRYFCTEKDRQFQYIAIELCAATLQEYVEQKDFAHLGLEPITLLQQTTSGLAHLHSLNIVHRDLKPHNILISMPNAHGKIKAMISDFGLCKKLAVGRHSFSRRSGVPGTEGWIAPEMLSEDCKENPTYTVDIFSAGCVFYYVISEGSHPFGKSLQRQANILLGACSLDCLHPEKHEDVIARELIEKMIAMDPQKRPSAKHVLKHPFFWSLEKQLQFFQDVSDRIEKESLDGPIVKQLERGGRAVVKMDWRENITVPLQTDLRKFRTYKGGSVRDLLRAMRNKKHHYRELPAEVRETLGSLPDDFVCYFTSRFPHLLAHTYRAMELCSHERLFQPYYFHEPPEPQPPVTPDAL

Biological target: T1, IRE1α (Homo sapiens, UniProt O75460)
T1 construct: gene ERN1
Assay: in vitro RNase activity assay of human IRE1α (Supplementary Fig. 2a)
Assay type: biochemical

For COc1cc2c(C)c(CC(=O)N3CCOCC3)c(=O)oc2c(C=O)c1O [MKC8866], the IC50 was 290 nM.
